Measurements published in PubChem BioAssay AID685 (PCMD, 2007).
The entries are a selection whose mix differs from that of the whole data set. Active and inactive are the calls of the source.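 Rule for the calls: active = mutant and wild-type yeast strains alike exhibit over 30% growth inhibition; inconclusive = a strain exceeds 50% while the second remains under 30%; inactive = the rest.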

Assay: yeast growth toxicity, wild-type and mutant, primary screen, cytotoxicity control for eIF2B function restoration project, wild-type and eIF2Bepsilon R284H mutant, A595 (AID 685);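 note: 0% = untreated cell controls and 100% = YPD media blanks without cells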
Settings: S. cerevisiae wild-type growth, A595 turbidity, 16 h; hits give high values; screened at 25 µM (by protocol)
Method in brief: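 Test system: Wild-type and eIF2Bepsilon-R284H mutant S. cerevisiae, screened separately | Dosing: Single 25 µM compound dose in 0.2% DMSO | Schedule: 16 h compound exposure during growth at 30 °C | Detection: A595 turbidity | Evaluation: Growth inhibition (%) versus cell controls and blanks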

**Q.** Which growth inhibition does the source give for `O=C(OC1CN2CCC1CC2)c1cccc(Cl)c1` (stereo not given) here?
**A.** inactive: 3.61%

**Q.** Which growth inhibition does the source give for `COC(=O)c1cc2c(s1)N=C(c1ccccc1)N(C)P2(=O)N1CCOCC1` (stereo not given) here?
**A.** inactive: 3.11%

**Q.** For `O=P1(Nc2nc3ccc(Cl)cc3s2)COc2ccccc2O1` (stereo not given), which growth inhibition is on record?
**A.** inactive: -0.71%

**Q.** Which growth inhibition does the source give for `CN1CCCC(OC(=O)C(c2ccccc2)c2ccccc2)C1` (stereo not given) here?
**A.** inactive: -1.88%

**Q.** For `COc1ccc(OP(C)(=O)Nc2ccccn2)cc1` (stereo not given), which growth inhibition is on record?
**A.** inactive: 28.5%

**Q.** Which growth inhibition does the source give for `COc1ccccc1OP(C)(=O)Nc1ccc(C)cc1C` (stereo not given) here?
**A.** inactive: 17.9%

**Q.** Which growth inhibition does the source give for `Cc1c2non([O-])c-2c(C)[n+](=O)[n+]1[O-]` here?
**A.** inactive: -8.75%

**Q.** Which growth inhibition does the source give for `Oc1ccccc1CNc1ccccn1` here?
**A.** inactive: 24.4%

**Q.** Which growth inhibition does the source give for `Cc1c(NP(C)(=O)Oc2ccc(C(C)C)cc2)c(=O)n(-c2ccccc2)n1C` (stereo not given) here?
**A.** inactive: -13.1%

**Q.** For `O=[N+]([O-])c1cccc2n[nH]nc12`, which growth inhibition is on record?
**A.** inactive: 18.9%

**Q.** For `CC1CCN(C(=O)Oc2c(Cl)cc(Cl)c3cccnc23)CC1`, which growth inhibition is on record?
**A.** inactive: -9.63%

**Q.** With `CCOP(C)(=S)SCC(=O)NC(C)C(=O)O` (stereo not given) as the compound, how does the growth inhibition read?
**A.** inactive: -3.12%

**Q.** For `Cc1ccc(NP(C)(=O)Oc2ccccc2)c(C)c1` (stereo not given), which growth inhibition is on record?
**A.** inactive: 1.67%

**Q.** Which growth inhibition does the source give for `COc1ccccc1OP(C)(=O)Nc1ccc(C)cc1` (stereo not given) here?
**A.** inactive: 18.9%

**Q.** With `O=C(OC1CN2CCC1CC2)C12CC3CC(CC(C3)C1)C2` (stereo not given) as the compound, how does the growth inhibition read?
**A.** inactive: -2.24%

**Q.** With `Cc1cc(C)cc(OP(C)(=O)Nc2ccccn2)c1` (stereo not given) as the compound, how does the growth inhibition read?
**A.** inactive: 27.3%

**Q.** With `O=P1(Nc2ccc(Br)cn2)COc2ccccc2OC1` as the compound, how does the growth inhibition read?
**A.** inactive: 19.3%

**Q.** For `COc1ccccc1OP(C)(=O)Nc1c(C)cccc1C` (stereo not given), which growth inhibition is on record?
**A.** inactive: -1.72%

**Q.** Which growth inhibition does the source give for `O=P1(Nc2ncccn2)COc2ccccc2OC1` here?
**A.** inactive: 6.19%

**Q.** For `CC1(CBr)Cn2c(nc3ccccc3c2=O)S1` (stereo not given), which growth inhibition is on record?
**A.** inactive: 0.34%
